Test results published in PMC3446790 (Cellular signalling, 2010).
“Also recorded” adds a separate entry of the source.

Chains of the proteins cited; added tags and fusions are not shown.
UniProt Q99500, whole entry, species assumed: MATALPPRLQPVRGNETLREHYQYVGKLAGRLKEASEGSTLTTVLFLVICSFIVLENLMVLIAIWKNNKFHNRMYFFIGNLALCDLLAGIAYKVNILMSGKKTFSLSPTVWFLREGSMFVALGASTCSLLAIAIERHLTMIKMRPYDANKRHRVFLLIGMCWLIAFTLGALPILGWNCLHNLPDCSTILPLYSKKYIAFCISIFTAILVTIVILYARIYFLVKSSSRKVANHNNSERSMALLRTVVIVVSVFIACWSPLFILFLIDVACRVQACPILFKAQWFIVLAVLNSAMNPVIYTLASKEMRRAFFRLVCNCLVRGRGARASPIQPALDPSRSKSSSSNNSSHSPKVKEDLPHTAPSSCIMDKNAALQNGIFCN

What was measured:
Format in all cases: cell-based
S1P1 [1] = biological target: T1, S1P1 (Homo sapiens, UniProt P21453); test: Receptor desensitization assay in S1P1-expressing HTC4 cells; conditions: 300 nM, 2 h preincubation
S1P1 [2] = biological target: T1, S1P1; test: Ca2+ mobilization; conditions: % of S1P maximal response, HTC4 cells
S1P1-eGFP = S1P1-eGFP (Homo sapiens, UniProt P21453); conditions: 10 nM, 30 min, HEK293
S1P3 = S1P3 (Homo sapiens, UniProt Q99500); test: Ca2+ mobilization; conditions: % of S1P maximal response, HTC4 cells

**Q.** For `CCCCCCCCc1ccc(CC[C@](N)(CO)COP(=O)(O)O)cc1` [FTY720-P, (S)-FTY720-phosphate, reference compound], which “desensitization of the S1P1 response to S1P after preincubation” value (S1P1 [1]) is on record?
**A.** completely desensitized

**Q.** What about the “Emax, S1P1” value (S1P1 [2]) of the same compound?
**A.** 85%

**Q.** And the S1P1-eGFP receptor internalization (S1P1-eGFP)?
**A.** caused internalization; also recorded: caused translocation

**Q.** What about the “Emax, S1P3” value (S1P3) of the same compound?
**A.** 23%
